Measured values from patent US7585941B2 (priority 2004, dated 2009).

Protein sequences, listed by entry. Tags and fused reporters are not part of them. Residues count along the entry.
UniProt P33535, whole entry: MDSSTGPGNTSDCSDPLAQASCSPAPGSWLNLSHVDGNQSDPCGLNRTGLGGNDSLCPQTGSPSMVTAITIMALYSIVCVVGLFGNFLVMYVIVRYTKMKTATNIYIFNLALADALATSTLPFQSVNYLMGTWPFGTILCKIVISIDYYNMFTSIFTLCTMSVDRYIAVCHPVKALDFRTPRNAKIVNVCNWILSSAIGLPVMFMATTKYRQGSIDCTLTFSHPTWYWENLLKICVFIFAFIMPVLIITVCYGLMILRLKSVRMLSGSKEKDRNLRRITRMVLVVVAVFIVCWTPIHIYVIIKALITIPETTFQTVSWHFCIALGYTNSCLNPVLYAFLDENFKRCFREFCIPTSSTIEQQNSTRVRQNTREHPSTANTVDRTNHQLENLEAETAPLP
UniProt P33535, 1-390 isoform P33535-2: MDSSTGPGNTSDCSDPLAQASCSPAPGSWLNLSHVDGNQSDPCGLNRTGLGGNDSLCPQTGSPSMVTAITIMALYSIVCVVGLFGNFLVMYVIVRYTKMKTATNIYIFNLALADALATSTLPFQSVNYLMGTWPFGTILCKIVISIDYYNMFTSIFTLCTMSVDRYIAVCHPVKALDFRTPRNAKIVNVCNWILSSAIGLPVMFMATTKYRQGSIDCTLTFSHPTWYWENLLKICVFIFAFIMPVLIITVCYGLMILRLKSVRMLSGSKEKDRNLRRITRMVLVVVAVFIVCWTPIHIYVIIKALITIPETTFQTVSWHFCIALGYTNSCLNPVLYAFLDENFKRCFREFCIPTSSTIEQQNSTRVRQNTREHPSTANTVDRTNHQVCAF
UniProt P33535, 1-386 limits assumed, stated change not applied: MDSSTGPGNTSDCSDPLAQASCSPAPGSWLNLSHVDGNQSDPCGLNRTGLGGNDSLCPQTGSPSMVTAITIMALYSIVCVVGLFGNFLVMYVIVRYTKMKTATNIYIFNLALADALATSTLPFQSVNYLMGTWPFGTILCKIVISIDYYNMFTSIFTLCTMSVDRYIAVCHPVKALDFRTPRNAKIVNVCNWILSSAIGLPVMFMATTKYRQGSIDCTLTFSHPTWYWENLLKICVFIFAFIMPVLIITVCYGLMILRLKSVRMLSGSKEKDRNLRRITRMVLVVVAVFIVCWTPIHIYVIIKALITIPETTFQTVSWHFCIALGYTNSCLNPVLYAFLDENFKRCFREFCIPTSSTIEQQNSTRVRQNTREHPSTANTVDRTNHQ
UniProt P33535, 1-451 isoform P33535-6: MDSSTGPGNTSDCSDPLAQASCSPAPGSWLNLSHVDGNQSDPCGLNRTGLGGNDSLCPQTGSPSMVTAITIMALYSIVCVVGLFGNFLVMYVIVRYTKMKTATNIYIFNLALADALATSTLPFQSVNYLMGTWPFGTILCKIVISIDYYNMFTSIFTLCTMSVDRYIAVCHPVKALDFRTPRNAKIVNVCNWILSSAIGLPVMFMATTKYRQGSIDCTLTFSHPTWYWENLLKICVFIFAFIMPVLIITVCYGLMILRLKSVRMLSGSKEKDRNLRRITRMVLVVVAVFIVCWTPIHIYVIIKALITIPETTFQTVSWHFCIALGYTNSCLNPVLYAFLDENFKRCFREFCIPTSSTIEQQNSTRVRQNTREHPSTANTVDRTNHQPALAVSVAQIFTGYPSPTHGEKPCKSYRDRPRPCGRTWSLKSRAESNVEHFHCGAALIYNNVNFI
UniProt P33535, 1-387 isoform P33535-8 I238V: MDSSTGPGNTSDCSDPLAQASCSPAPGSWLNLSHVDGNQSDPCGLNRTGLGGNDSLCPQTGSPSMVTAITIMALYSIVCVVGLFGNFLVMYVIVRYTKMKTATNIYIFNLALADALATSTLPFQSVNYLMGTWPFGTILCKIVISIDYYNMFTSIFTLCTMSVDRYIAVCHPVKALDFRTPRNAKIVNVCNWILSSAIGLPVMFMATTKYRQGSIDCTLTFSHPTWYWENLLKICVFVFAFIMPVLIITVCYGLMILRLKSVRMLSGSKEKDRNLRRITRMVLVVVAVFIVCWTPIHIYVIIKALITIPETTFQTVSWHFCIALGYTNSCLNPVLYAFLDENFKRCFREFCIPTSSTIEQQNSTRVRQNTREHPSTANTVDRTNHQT

Legend:
rMOR-1 [1] = target: T1, rMOR-1 (Rattus norvegicus, UniProt P33535); type: binding; settings: read-out: Ki Value rMOR-1
rMOR-1A [2] = target: T2, rMOR-1A (Rattus norvegicus, UniProt P33535); type: biochemical
rMOR-1 (no Exon 4) = rMOR-1 (no Exon 4) (Rattus norvegicus, UniProt P33535); type: biochemical
rMOR-1 (no E4) = target: T3, rMOR-1 (no E4) (Rattus norvegicus, UniProt P33535); type: binding; settings: read-out: Ki Value rMOR-1 (no E4)
T3 construct: rMOR-1 no E 4; expressed in transfected cells

rMOR-1C1 [3] = target: T4, rMOR-1C1 (Rattus norvegicus, UniProt P33535); type: biochemical
rMOR-1A [4] = target: T2, rMOR-1A; type: binding; settings: read-out: Ki Value rMOR-1A
rMOR-1D [5] = target: T5, rMOR-1D (Rattus norvegicus, UniProt P33535); type: biochemical
rMOR-1 [6] = target: T1, rMOR-1; type: biochemical
rMOR-1C1 [7] = target: T4, rMOR-1C1; type: binding; settings: read-out: Ki Value rMOR-1C1
rMOR-1D [8] = target: T5, rMOR-1D; type: binding; settings: read-out: Ki Value rMOR-1D
hMOR-1B3 = hMOR-1B3 (Homo sapiens, UniProt P35372); type: binding; settings: read-out: Ki value hMOR-1B3
hMOR-1B4 = hMOR-1B4 (Homo sapiens, UniProt P35372); type: binding; settings: read-out: Ki value hMOR-1B4
hMOR-1A = hMOR-1A (Homo sapiens, UniProt P35372); type: binding; settings: read-out: Ki value hMOR-1A
hMOR-1Y = hMOR-1Y (Homo sapiens, UniProt P35372); type: binding; settings: read-out: Ki value hMOR-1B6
hMOR-1B1 = hMOR-1B1 (Homo sapiens, UniProt P35372); type: binding; settings: read-out: Ki value hMOR-1B1
hMOR-1B2 = hMOR-1B2 (Homo sapiens, UniProt P35372); type: binding; settings: read-out: Ki value hMOR-1B2
hMOR-1 = hMOR-1 (Homo sapiens, UniProt P35372); type: binding; settings: read-out: Ki value hMOR-1 wt
hMOR-1B5 = hMOR-1B5 (Homo sapiens, UniProt P35372); type: binding; settings: read-out: Ki value hMOR-1B5
hMOR-1(exons 1-3) = target: T6, hMOR-1(exons 1-3) (Homo sapiens, UniProt P35372); type: binding; settings: read-out: Ki value hMOR-1 w/o exon 4
T6 construct: A cDNA fragment containing only exons 1, 2 and 3 was also generated by PCR; expressed in transfected cells

Substance | Ki (rMOR-1 [1]) | EC50 (rMOR-1A [2]) | EC50 (rMOR-1 (no Exon 4)) | Ki (rMOR-1 (no E4)) | EC50 (rMOR-1C1 [3]) | Ki (rMOR-1A [4]) | EC50 (rMOR-1D [5]) | EC50 (rMOR-1 [6]) | Ki (rMOR-1C1 [7]) | Ki (rMOR-1D [8]) | Ki (hMOR-1B3) | Ki (hMOR-1B4) | Ki (hMOR-1A) | Ki (hMOR-1Y) | Ki (hMOR-1B1) | Ki (hMOR-1B2) | Ki (hMOR-1) | Ki (hMOR-1B5) | Ki (hMOR-1(exons 1-3))
Endomorphin 1 | 4.1 ± 0.7 nM | 15 ± 3 nM | 114 ± 11 nM | 4.4 ± 0.1 nM | 54 ± 8 nM | 6.5 ± 0.3 nM | 100 ± 26 nM | 14 ± 4 nM | 3.9 ± 0.1 nM | 3.9 ± 0.4 nM |  |  |  |  |  |  |  |  | 
Endomorphin 2 |  |  |  |  |  |  |  |  |  |  | 6.3 ± 2.5 nM | 22.5 ± 3.4 nM | 5.6 ± 3 nM | 9.4 ± 5.1 nM | 5.4 ± 1.1 nM | 19.9 ± 2.2 nM | 34.1 ± 25.4 nM | 9.6 ± 5.2 nM | 4.6 ± 1.3 nM
